{
  "sequences": {"note": "Sequences of proteins named here, by UniProt entry; tags and fusion partners are left off.", "UniProt O75608, whole entry": "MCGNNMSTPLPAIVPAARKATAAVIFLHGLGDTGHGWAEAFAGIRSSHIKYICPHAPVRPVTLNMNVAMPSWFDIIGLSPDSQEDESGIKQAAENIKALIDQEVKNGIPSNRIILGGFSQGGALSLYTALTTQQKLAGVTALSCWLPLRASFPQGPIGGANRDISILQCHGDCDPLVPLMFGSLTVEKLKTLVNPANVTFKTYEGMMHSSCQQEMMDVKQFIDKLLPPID"},
  "source": "PubChem BioAssay AID2174",
  "about": "(The Scripps Research Institute Molecular Screening Center, 2009)",
  "note": "Only a part is listed here, and it is no random draw. Activity calls are given as the source filed them.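 Rule for the calls: active = inhibition above the mean of all tested compounds plus 3 SD, set per campaign (cut at about 14% in these data); inactive = the rest.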",
  "data": [
    {"biological_target": "Acyl-protein thioesterase 1 (Homo sapiens) (UniProt O75608)", "experiment": "inhibition of human lysophospholipase 1 – biochemical, fluorescence polarization, FP-Rh probe ABPP, counter-screen for PME1 inhibitor project, primary screen (AID 2174);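 note: inhibitors block serine hydrolase probe labeling of LYPLA1 so polarization falls; 0% = enzyme with DMSO and 100% = wells lacking LYPLA1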", "settings": "recombinant LYPLA1, FP-Rh probe fluorescence polarization; at 5.9 µM; active compounds read high", "values": [
      {"smiles": "CCC(CO)(C(=O)OC1CN2CCC1CC2)c1ccccc1", "note": "(stereo unspecified)", "inhibition": "inactive: 0.88%"},
      {"smiles": "COc1cccc(C(=O)N(c2cc(C)cc(C)c2)C2CCN(C(=O)OC(C)(C)C)CC2)c1", "inhibition": "inactive: 0.89%"},
      {"smiles": "COc1cc(OC)cc(C(=O)NCC2(N3CCOCC3)CCCCC2)c1", "inhibition": "inactive: 3.22%"},
      {"smiles": "CCCOc1ccc(C)cc1CN(CCCl)CCCl", "inhibition": "inactive: 3.94%"},
      {"smiles": "CN1CCC(Nc2ccc(Cl)cc2)CC1", "inhibition": "inactive: -3.68%"},
      {"smiles": "CCOc1ncccc1C(=O)NCC1(N2CCOCC2)CCCCC1", "inhibition": "inactive: -0.49%"},
      {"smiles": "CN1CCC(Nc2ccc(F)c(Cl)c2)CC1", "inhibition": "inactive: -2.9%"},
      {"smiles": "CCCOc1ccc(C(=O)NCC2(N(C)C)CCCCC2)cc1", "inhibition": "inactive: -1.63%"},
      {"smiles": "CC(C)(C)OC(=O)N1CCC(Nc2ccccc2)CC1", "inhibition": "inactive: 0.19%"},
      {"smiles": "O=C(O)C1(Nc2ccccc2)CCN(Cc2ccccc2)CC1", "inhibition": "inactive: -3.64%"},
      {"smiles": "CCN1CCC(Nc2cccc(F)c2)CC1", "inhibition": "inactive: -0.1%"},
      {"smiles": "O=C(NCC1(N2CCCCC2)CCCCC1)c1ccco1", "inhibition": "inactive: 3.74%"},
      {"smiles": "CN(C)c1ccc(C(=O)NCC2(N3CCCCC3)CCCCC2)cc1", "inhibition": "inactive: 2.17%"},
      {"smiles": "COc1cc(OC)cc(C(=O)NCC2(N3CCCCC3)CCCCC2)c1", "inhibition": "inactive: 0.23%"},
      {"smiles": "Cc1ccc(C(=O)NCC2(N3CCCCC3)CCCCC2)o1", "inhibition": "inactive: 5.5%"},
      {"smiles": "Fc1ccccc1NC1CCN(Cc2ccccc2)CC1", "inhibition": "inactive: -2.17%"},
      {"smiles": "c1ccc(CN2CCC(Nc3ccccc3)CC2)cc1", "inhibition": "inactive: 2.39%"},
      {"smiles": "CCCN1CCC(Nc2cc(OC)cc(OC)c2)CC1", "inhibition": "inactive: 0.37%"},
      {"smiles": "CN(C)C1(CNC(=O)c2cccc(C#N)c2)CCCCC1", "inhibition": "inactive: 3.51%"},
      {"smiles": "CC(C)(C)OC(=O)N1CCC(N(C(=O)c2ccccc2)c2ccc(Cl)cc2)CC1", "inhibition": "inactive: -1.52%"},
      {"smiles": "N#Cc1ccc(C(=O)NCC2(N3CCCCC3)CCCCC2)cc1", "inhibition": "inactive: -3.35%"},
      {"smiles": "N/C(=N\\O)c1c(N)no[n+]1[O-]", "inhibition": "inactive: -3.23%"},
      {"smiles": "CCOC(=O)N1CCC(Nc2ccc(C)cc2)CC1", "inhibition": "inactive: -0.05%"},
      {"smiles": "O=C(OC1CN2CCC1CC2)C1c2ccccc2C=Cc2ccccc21", "note": "(stereo unspecified)", "inhibition": "inactive: 0.95%"},
      {"smiles": "CCc1cc(C(=O)NCC2(N3CCCCC3)CCCCC2)sc1C", "inhibition": "inactive: -0.32%"},
      {"smiles": "O=C(NCC1(N2CCOCC2)CCCCC1)c1cc(Br)ccc1Cl", "inhibition": "inactive: 2.3%"},
      {"smiles": "COc1ccc(C(=O)NCC2(N3CCOCC3)CCCCC2)cc1OC", "inhibition": "inactive: -0.48%"},
      {"smiles": "O=C(NCC1(N2CCCCC2)CCCCC1)c1cncc(Br)c1", "inhibition": "inactive: 2.12%"},
      {"smiles": "CN1CCC(Nc2cccc(F)c2)CC1", "inhibition": "inactive: -2.2%"},
      {"smiles": "COc1ccc(CN(CCCl)CCCl)cc1Cl", "inhibition": "inactive: -3.09%"},
      {"smiles": "CN(C)c1cccc(C(=O)NCC2(N3CCCCC3)CCCCC2)c1", "inhibition": "inactive: 1.91%"},
      {"smiles": "CC(C)c1ccc(NC2CCN(C(=O)OC(C)(C)C)CC2)cc1", "inhibition": "inactive: 0.21%"},
      {"smiles": "COc1cc(OC)c(C(=O)NCC2(N(C)C)CCCCC2)cc1OC", "inhibition": "inactive: -1.48%"},
      {"smiles": "O=C(NCC1(N2CCCCC2)CCCCC1)c1cccc(C(F)(F)F)c1", "inhibition": "inactive: 1.41%"},
      {"smiles": "COc1ccc(NC2CCN(C(=O)OC(C)(C)C)CC2)cc1", "inhibition": "inactive: -1.2%"},
      {"smiles": "CN1CCN(CCOC(=O)C(O)(c2ccccc2)c2ccccc2)CC1", "inhibition": "inactive: -1.23%"},
      {"smiles": "O=C(NCC1(N2CCOCC2)CCCCC1)c1cc(=O)[nH]c2ccccc12", "inhibition": "inactive: -3.23%"},
      {"smiles": "COc1cc(C(=O)NCC2(N3CCCCC3)CCCCC2)ccc1OC(F)F", "inhibition": "inactive: -0.22%"},
      {"smiles": "O=C(NCC1(N2CCCCC2)CCCCC1)c1ccc(OC(F)F)cc1", "inhibition": "inactive: -5.77%"},
      {"smiles": "O=C(NCC1(N2CCCCC2)CCCCC1)c1cccc([N+](=O)[O-])c1", "inhibition": "inactive: -5.96%"},
      {"smiles": "CCN1CCC(Nc2ccc(Cl)cc2)CC1", "inhibition": "inactive: 0.4%"},
      {"smiles": "N#CC1(Nc2ccccc2)CCN(CCc2ccccc2)CC1", "inhibition": "inactive: 0.17%"},
      {"smiles": "CCOC(=O)N1CCC(Nc2cccc(C)c2)CC1", "inhibition": "inactive: 1.78%"},
      {"smiles": "Cc1ccc(OCC(C)C)c(CN(CCCl)CCCl)c1", "inhibition": "inactive: 0.21%"},
      {"smiles": "CCOc1ccc(C)cc1CN(CCCl)CCCl", "inhibition": "inactive: 2.73%"},
      {"smiles": "O=C(NCC1(N2CCCCC2)CCCCC1)c1ccc(F)cc1", "inhibition": "inactive: 0.53%"},
      {"smiles": "COc1ccc(NC2CCN(CCc3ccccc3)CC2)c(OC)c1", "inhibition": "inactive: 2.05%"},
      {"smiles": "O=C(NCC1(N2CCOCC2)CCCCC1)c1cc2ccccc2o1", "inhibition": "inactive: 1.85%"},
      {"smiles": "O=C(NCC1(N2CCCCC2)CCCCC1)c1ccc(Cl)nc1", "inhibition": "inactive: 1.35%"},
      {"smiles": "Cc1cc(C)cc(N(C(=O)c2ccccc2)C2CCN(C(=O)OC(C)(C)C)CC2)c1", "inhibition": "inactive: 3.97%"},
      {"smiles": "CCOC(=O)N1CCC(Nc2ccc(OC)cc2)CC1", "inhibition": "inactive: 0.64%"},
      {"smiles": "O=C(OC1CN2CCC1CC2)C1c2ccccc2Oc2ccccc21", "note": "(stereo unspecified)", "inhibition": "inactive: -0.12%"},
      {"smiles": "O=C(NCC1(N2CCCCC2)CCCCC1)c1ccc(Cl)s1", "inhibition": "inactive: 0.38%"},
      {"smiles": "N#CC1(Nc2ccccc2)CCN(Cc2ccccc2)CC1", "inhibition": "inactive: 1.65%"},
      {"smiles": "COc1ccc(Cl)cc1C(=O)NCC1(N2CCOCC2)CCCCC1", "inhibition": "inactive: 2.92%"},
      {"smiles": "O=C(NCC1(N2CCCCC2)CCCCC1)c1ccc(=O)[nH]c1", "inhibition": "inactive: 3.31%"},
      {"smiles": "O=C(NCC1(N2CCCCC2)CCCCC1)c1cccs1", "inhibition": "inactive: -1.48%"},
      {"smiles": "COc1ccc(C(=O)NCC2(N3CCCCC3)CCCCC2)cc1", "inhibition": "inactive: 6.86%"},
      {"smiles": "COc1ccc(C(=O)NCC2(N3CCCCC3)CCCCC2)c(OC)c1OC", "inhibition": "inactive: -5.5%"},
      {"smiles": "CC(C)(C)OC(=O)N1CCC(N(C(=O)c2ccccc2)c2ccc(F)cc2)CC1", "inhibition": "inactive: -2.08%"},
      {"smiles": "CSc1ccccc1C(=O)NCC1(N2CCCCC2)CCCCC1", "inhibition": "inactive: -0.09%"}
    ]}
  ]
}
